Laboratory results reported in ChEMBL document CHEMBL1156818, “Rational design of indoleamine 2,3-dioxygenase inhibitors” (J Med Chem, 2010).

The chains behind the UniProt entries cited, without tags or fusion partners. Where a name states a change or a piece, a line headed by the entry shows the natural chain unless it says otherwise.
UniProt P28776: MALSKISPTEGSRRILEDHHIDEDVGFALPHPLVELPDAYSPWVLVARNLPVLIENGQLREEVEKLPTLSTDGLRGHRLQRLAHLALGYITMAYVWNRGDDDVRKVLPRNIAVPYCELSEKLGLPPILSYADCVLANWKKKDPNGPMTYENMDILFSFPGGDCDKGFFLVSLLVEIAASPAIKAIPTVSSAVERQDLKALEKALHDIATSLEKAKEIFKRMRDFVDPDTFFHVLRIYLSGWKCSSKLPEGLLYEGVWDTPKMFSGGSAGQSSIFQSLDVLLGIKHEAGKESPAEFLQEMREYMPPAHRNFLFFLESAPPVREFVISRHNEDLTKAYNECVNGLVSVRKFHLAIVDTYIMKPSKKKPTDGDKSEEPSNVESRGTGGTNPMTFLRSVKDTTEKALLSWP
UniProt P14902, whole entry: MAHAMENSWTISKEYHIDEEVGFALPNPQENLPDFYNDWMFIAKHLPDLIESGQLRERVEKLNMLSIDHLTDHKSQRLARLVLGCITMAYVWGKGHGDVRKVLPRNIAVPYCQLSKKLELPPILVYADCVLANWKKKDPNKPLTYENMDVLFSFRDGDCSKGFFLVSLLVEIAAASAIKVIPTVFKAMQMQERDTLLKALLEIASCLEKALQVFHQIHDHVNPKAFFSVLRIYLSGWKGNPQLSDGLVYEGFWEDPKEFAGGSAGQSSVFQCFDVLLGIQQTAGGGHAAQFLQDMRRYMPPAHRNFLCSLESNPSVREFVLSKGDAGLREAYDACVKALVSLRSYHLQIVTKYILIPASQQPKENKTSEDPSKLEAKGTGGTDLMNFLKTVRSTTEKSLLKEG

Assays:
[1] = target: Indoleamine 2,3-dioxygenase 1 (Mus musculus, UniProt P28776); test: Inhibition of mouse recombinant IDO expressed in mouse P815B cells assessed as blockade of tryptophan degradation by HPLC; format: cell-based
[2] = target: T1, Indoleamine 2,3-dioxygenase 1 (Homo sapiens, UniProt P14902)
[3] = target: T1, Indoleamine 2,3-dioxygenase 1; test: Inhibition of human recombinant IDO expressed in HEK293 cells assessed as blockade of tryptophan degradation by HPLC; format: cell-based

Row | SMILES | IC50 [1] [µM] | IC50 [2] [µM] | IC50 [3] [µM]
1 | CCNc1ccc(O)c2ccccc12 | 50 |  | 
2 | Oc1ccc(O)c2ccccc12 |  | 1.5 | 10
